pIC50: −log10 of the molar value.
Key:
GnRH receptor = GnRH receptor (Homo sapiens, UniProt P30968); experiment: GnRH-R reporter assay (NFAT promoter luciferase, leuprolide acetate as ligand); settings: read-out: IC50 Value, HEK293 transformed with pcDNA3.1/GnRH receptor and pGL4/NFAT promoter
[1] = Assay for oral absorptivity (plasma drug level after oral administration); settings: SD rats
Procedure: 1) Preparation of Specimen for Measuring Drug Level upon Oral Administration
For use as experimental animals, SD rats (Charles River Japan, male, 8 weeks old, 220-270 g) was starved overnight. Test compounds (25˜30 mg) were dissolved in polyethyleneglycol 400 (PEG400) 20%, and a 0.5% carboxy methyl cellulose (CMC) solution 80% to produce solutions of 4 μmmol/mL. The rats were weighed. The test compounds were orally administered at a dose of 40 μmol/kg (ca. 25˜30 mg/kg) to the rats using a sonde and a 3 mL syringe. Blood samples were taken 20, 40, 60, 120, 240, and 360 min after the oral administration. Plasmas separated from the blood samples by centrifugation were used as specimens.
2) Measurement of Drug Level
0.09 mL of methanol was added to 0.03 mL of the plasma obtained in 1), followed by vortexing to precipitate and remove proteins. 0.005 mL of the supernatant was injected to LC/MS/MS.
Apparatus: Shiseido Nanospace SI-2
Column: Shiseido capcelpack C18, MG3, 5 um, 2.0 mm I.D×50 mm
Mobile Phase: a mixture of 3:7 10 mM ammonium formate (pH 4.0): acetonitrile.

Chains of the proteins cited; added tags and fusions are not shown.
UniProt P30968, whole entry: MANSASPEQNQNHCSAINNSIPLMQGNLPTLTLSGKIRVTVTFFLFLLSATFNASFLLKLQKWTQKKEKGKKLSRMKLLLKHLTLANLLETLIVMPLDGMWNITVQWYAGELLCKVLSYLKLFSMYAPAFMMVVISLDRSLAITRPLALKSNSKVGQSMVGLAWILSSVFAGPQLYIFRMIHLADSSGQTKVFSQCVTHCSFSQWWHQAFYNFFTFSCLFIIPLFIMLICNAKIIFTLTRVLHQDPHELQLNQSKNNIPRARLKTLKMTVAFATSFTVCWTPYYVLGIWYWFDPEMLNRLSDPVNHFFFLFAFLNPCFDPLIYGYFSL

COc1cccc(-c2c(C)n(Cc3c(F)cccc3C(F)(F)F)c(=O)n(C[C@H](NCCCC(=O)O)c3ccccc3)c2=O)c1F
pIC50 (GnRH receptor): 8.80 | Cmax ([1]; oral, 40 μmol/kg, plasma): 442.9 ng/mL | AUC8 hr ([1]; plasma drug level after oral administration): 757.6 ng·h/mL
